Assay results as given in PubChem BioAssay AID651704 (Broad Institute, 2012).
The list shows a part of the results, in another mix than the full data. Active and inactive are the calls of the source.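 Rule for the calls: active = every replicate reaching a set inhibition limit, whatever the replicate mean (cut at about 25% in these data); inconclusive = mean inhibition reaches that limit but some replicates miss it; inactive = the rest.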

Sequences of proteins named here, by UniProt entry; tags and fusion partners are left off.
UniProt P42568, whole entry: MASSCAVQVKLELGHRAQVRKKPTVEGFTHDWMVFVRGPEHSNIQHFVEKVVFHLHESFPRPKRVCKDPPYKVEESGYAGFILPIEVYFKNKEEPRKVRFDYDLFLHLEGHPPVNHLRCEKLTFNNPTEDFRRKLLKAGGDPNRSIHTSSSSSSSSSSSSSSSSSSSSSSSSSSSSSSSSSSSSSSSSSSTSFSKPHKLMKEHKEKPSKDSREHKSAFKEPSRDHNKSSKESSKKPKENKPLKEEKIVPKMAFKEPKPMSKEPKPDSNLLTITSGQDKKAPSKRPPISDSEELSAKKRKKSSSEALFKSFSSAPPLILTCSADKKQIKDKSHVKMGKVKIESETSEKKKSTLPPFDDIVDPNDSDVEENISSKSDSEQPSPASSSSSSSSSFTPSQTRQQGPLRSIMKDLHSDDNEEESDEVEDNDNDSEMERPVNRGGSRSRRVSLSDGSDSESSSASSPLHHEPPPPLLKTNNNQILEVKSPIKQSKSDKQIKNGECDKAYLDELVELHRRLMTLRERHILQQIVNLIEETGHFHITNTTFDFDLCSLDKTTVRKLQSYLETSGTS

molecular target: Protein AF-9 (Homo sapiens) (UniProt P42568); assay: inhibitors of AF4 peptide binding to AF9, primary screen, biochemical, AlphaScreen, biotin-AF4 peptide, FLAG-AF9, single point (AID 651704); settings: at 10 µM, active compounds read high;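 note: 0% = plate neutral control median and 100% = total signal loss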

| Compound | inhibition |
| --- | --- |
| CCOC(=O)Nc1ccc([As](=O)(O)O)c(O)c1 | inactive: 0.59% |
| CCCCOc1ccc(C(=O)NCC2(N3CCCCC3)CCCCC2)cc1OC | inactive: 4.96% |
| COP(=O)(OC)N1CC1c1ccccc1 (stereo unspecified) | inactive: 4.13% |
| CCOC(=O)Nc1cccc([As](=O)(O)O)c1 | inactive: -2.56% |
| O=[N+]([O-])c1ccc(Nc2ccc(Oc3ccc([N+](=O)[O-])cc3[N+](=O)[O-])cc2)c([N+](=O)[O-])c1 | inactive: -4.49% |
| CP(=O)(Nc1ccccc1Br)Oc1ccccc1 (stereo unspecified) | inactive: 9.55% |
| COc1ccccc1OP(C)(=O)Nc1ccccc1 (stereo unspecified) | inactive: 0.381% |
| O=P(Nc1ccccn1)(c1cccc2ccccc12)c1cccc2ccccc12 | inactive: -0.289% |
| Cc1cc(SC(NC=O)C(Cl)(Cl)Cl)ncn1 (stereo unspecified) | inactive: 0.494% |
| CP(=O)(Oc1ccccc1)OC(c1ccccc1)C(F)(F)F (stereo unspecified) | inactive: 0.121% |
| COC(=O)C1(C)COP(=O)(N2CCCC2)OC1 (stereo unspecified) | inactive: -2.7% |
| COP1(=S)c2c(C)nn(CCC#N)c2N=C(c2ccc(F)cc2)N1C (stereo unspecified) | inactive: 5.04% |
| CP(=O)(Nc1ccc(SC(F)(F)F)cc1)Oc1ccc(Cl)cc1 (stereo unspecified) | inactive: 1.81% |
| O=C(Nc1ccncc1[N+](=O)[O-])c1ccc([N+](=O)[O-])cc1[N+](=O)[O-] | inactive: 0.171% |
| CP(=O)(NC(=O)Nc1ccccc1)Oc1ccccc1 (stereo unspecified) | inactive: -2.58% |
| CCc1ccc(OP(C)(=O)N2CCN(c3ccc([N+](=O)[O-])cc3)CC2)cc1 (stereo unspecified) | inactive: 2.39% |
| CCOC(=O)c1ccc(NC(=O)C(C)(CCl)SC)cc1 (stereo unspecified) | inactive: -0.484% |
| CCOC(=O)c1ccc(NP(C)(=O)Oc2ccc(OC)cc2)cc1 (stereo unspecified) | inactive: -2.07% |
| O=[N+]([O-])c1cc([N+](=O)[O-])c(O)c([N+](=O)[O-])c1.c1ccc(Oc2ccncc2)cc1 | inactive: -0.767% |
| O=C(OC1CN2CCC1CC2)c1cccc([N+](=O)[O-])c1 (stereo unspecified) | inactive: -0.989% |
| CP(=O)(Nc1ccccn1)Oc1ccc(Cl)cc1 (stereo unspecified) | inactive: 4.84% |
| Cc1cc(=O)[nH]c(N[N+](=O)[O-])n1 | inactive: -1.06% |
| CCN(CC)CCCOC(=O)C(O)(c1ccccc1)c1ccccc1 | inactive: -0.444% |
| Cc1c2c(nc3ccccc13)SC(C(Cl)Cl)C2 (stereo unspecified) | inactive: -3.42% |

| Compound | inhibition |
| --- | --- |
| COc1cc(I)ccc1[As](=O)(O)O | inactive: 2.11% |
| COc1ccc2nc(NP(=O)(c3ccccc3)c3ccccc3)sc2c1 | inactive: 0.535% |
| COc1ccc(CN2/C(=N\P(=O)(Oc3ccccc3)Oc3ccccc3)Cc3ccccc3C2C2CC2)cc1 (stereo unspecified) | inactive: 0.551% |
| O=P1(N(CCCl)CCCl)OCCCN1CCCl (stereo unspecified) | inactive: 3.28% |
| O=P1(N(CCCl)CCCl)Nc2ccccc2N1 | inactive: 1.15% |
| COc1ccccc1-c1ccccn1.O=[N+]([O-])c1cc([N+](=O)[O-])c(O)c([N+](=O)[O-])c1 | inactive: -2.23% |
| COc1ccc(N/C(=N/P(=O)(N2CCOCC2)N2CCOCC2)N2CCOCC2)cc1 | inactive: 0.894% |
| O=[N+]([O-])c1cc(Oc2ccc([N+](=O)[O-])cc2C(F)(F)F)cc([N+](=O)[O-])c1 | inactive: 0.229% |
| O=[N+]([O-])c1ccc(-c2cc([N+](=O)[O-])c(O)c([N+](=O)[O-])c2)cc1 | inactive: 0.264% |
| COc1cc(C(=O)NCC2(N3CCOCC3)CCCCC2)ccc1OCC(C)C | inactive: 3.22% |
| O=[As](O)(c1ccc(O)cc1)c1ccccc1O | inactive: -6.94% |
| C[As](=O)(O)c1cccc(C(=O)O)c1 | inactive: -10.6% |
| O=[N+]([O-])c1ccc2c(c1)C=Nc1ccccc1O2 | inactive: 5.3% |
| Cc1ccc2nc3c(c(C)c2c1)CC(C(Cl)Cl)S3 (stereo unspecified) | inactive: -2.8% |
| Cc1cccc(C)c1OP(C)(N)=O (stereo unspecified) | inactive: -3.06% |
| [N-]=[N+]=NC1CCCCC1NC(=O)c1cc([N+](=O)[O-])cc([N+](=O)[O-])c1 (stereo unspecified) | inactive: -0.338% |
| Cc1ccc(OP(=O)(Nc2ccc([N+](=O)[O-])cn2)Oc2ccc(C)cc2)cc1 | inactive: -0.171% |
| CC(C)(C)c1ccc(OP(C)(=O)Nc2ccc(SC(F)(F)F)cc2)cc1 (stereo unspecified) | inactive: -28.4% |
| COC(=O)C1(C)COP(=O)(N2CCCCCC2)OC1 (stereo unspecified) | inactive: -2.41% |
| Cc1cc(C)cc(OP(C)(N)=O)c1 (stereo unspecified) | inactive: -2.11% |
| COc1ccccc1OP(C)(=O)Nc1cc(Cl)ccc1C (stereo unspecified) | inactive: -2.79% |
| CC(C)NC(=O)NP(=O)(Oc1ccccc1)Oc1ccccc1 | inactive: 1.1% |
| O=C(OC1CN2CCC1CC2)c1cccc2[nH]cnc12 (stereo unspecified) | inactive: -6% |
| O=P(Nc1nccs1)(Oc1ccccc1)Oc1ccccc1 | inactive: -4.99% |

| Compound | inhibition |
| --- | --- |
| CCOP1(=S)c2c(C)nn(CCC#N)c2N=C(c2ccccc2F)N1C (stereo unspecified) | inactive: 5.5% |
| O=C(O)c1cccc(Nc2c([N+](=O)[O-])cc([N+](=O)[O-])cc2[N+](=O)[O-])c1 | inactive: 6.71% |
| Nc1ccccc1[As](=O)(O)c1ccccc1 | inactive: 12.3% |
| O=C(O)COc1ccc([As](=O)(O)O)cc1[N+](=O)[O-] | inactive: -2.67% |
| NC(=O)Nc1ccc([As](=O)(O)O)cc1 | inactive: 0.219% |
| CN(C(=O)Cc1ccc(Cl)c(Cl)c1)[C@H]1CC[C@@]2(CCCO2)C[C@@H]1N1CCCC1 | inactive: -1.06% |
| CN(C)C(=O)c1cc([N+](=O)[O-])cc2c1-c1c(cc([N+](=O)[O-])cc1[N+](=O)[O-])C2=O | inactive: -3.09% |
| CCOP1(=S)c2c(C)nn(CCC#N)c2N=C(c2ccc(F)cc2)N1C (stereo unspecified) | inactive: 0.101% |
| CN(C(=O)Cc1ccccc1)[C@@H]1CC[C@]2(CCCO2)C[C@H]1N1CCCC1 | inactive: -2.53% |
| N#CCCN(C(=O)COC(=O)C(O)(c1ccccc1)c1ccccc1)c1ccc(F)cc1 | inactive: -1.85% |
| COc1ccccc1OP(C)(=O)Nc1cccc(Br)c1 (stereo unspecified) | inactive: 1.28% |
| CS(=O)(=O)c1ccc(Cl)c(NC(=O)COC(=O)C(O)(c2ccccc2)c2ccccc2)c1 | inactive: 2.11% |
| O=[As](O)(O)c1cccnc1 | inactive: -1.41% |
| COc1cc(C(=O)NCC2(N3CCOCC3)CCCCC2)cc(Cl)c1OC(C)C | inactive: 2.75% |
| CCOC(=O)c1ccc(NP(C)(=O)Oc2cc(C)cc(C)c2)cc1 (stereo unspecified) | inactive: -3.37% |
| Cc1cc(C)cc(OP(C)(=O)Nc2ccc(C)cc2C)c1 (stereo unspecified) | inactive: -17.2% |
| O=[As](O)(c1cccc(O)c1)c1cccc(O)c1 | inactive: 12.4% |
| CCCOP(=S)(Nc1nc(N)cc(=O)[nH]1)OCCC | inactive: 0.275% |
| Nc1cccc2c([As](=O)(O)O)cccc12 | inactive: -2.88% |
| CP(=O)(Nc1cccc(Br)c1)Oc1ccccc1 (stereo unspecified) | inactive: -0.471% |
| CCOP(=O)(Nc1cccc2ccccc12)OCC | inactive: -1.26% |
| CCOP(=O)(Nc1ccc(C)cn1)OCC | inactive: -0.317% |
| O=[N+]([O-])c1cc([N+](=O)[O-])c(-n2nnc3ccccc32)c([N+](=O)[O-])c1 | inactive: -1.15% |
| CCOP(=O)(NC(=NC(C)c1ccccc1)NC(C)c1ccccc1)OCC (stereo unspecified) | inactive: 0.0145% |

| Compound | inhibition |
| --- | --- |
| Nc1ccc(CCCCOc2ccccc2)cc1.O=[N+]([O-])c1cc([N+](=O)[O-])c(O)c([N+](=O)[O-])c1 | inactive: 13.4% |
| CCC1=CC2Cc3nc4ccc(Cl)cc4c(N)c3C(C1)C2 (stereo unspecified) | inactive: 18.9% |
| O=C(O)C(O)c1ccc(N(CCCl)CCCl)cc1.c1ccncc1 (stereo unspecified) | inactive: 4.15% |
| CC(C)(C)C(=O)NC(Sc1ncccn1)C(Cl)(Cl)Cl (stereo unspecified) | inactive: 1.07% |
| O=P1(N(CCCl)CCCl)NCCC(C(F)(F)F)O1 (stereo unspecified) | inactive: -1.18% |
| CN(Cc1cccnc1)C(=O)COc1ccc(Cl)c(Cl)c1.O=[N+]([O-])c1cc([N+](=O)[O-])c(O)c([N+](=O)[O-])c1 | inactive: -0.744% |
| COc1ccccc1CNC(=O)COC(=O)C(O)(c1ccccc1)c1ccccc1 | inactive: -2.32% |
| O=[N+]([O-])c1cc([N+](=O)[O-])c(-c2cnn(-c3ccccc3)c2)c([N+](=O)[O-])c1 | inactive: 4.88% |
| Cc1ccc(S(=O)(=O)N(CCCN)CCCc2c(C)nc(N)[nH]c2=O)cc1.O=[N+]([O-])c1cc([N+](=O)[O-])c(O)c([N+](=O)[O-])c1 | inactive: -5.87% |
| CC(C)/C=N\N=C(\N)N[N+](=O)[O-] | inactive: -0.523% |
| CN(C(=O)Cc1ccc(Cl)c(Cl)c1)[C@@H]1CCCC[C@H]1N1CCCC1 | inactive: -2.74% |
| CC1CCC(C(C)C)C(OP(=O)(Nc2ccccn2)c2ccccc2)C1 (stereo unspecified) | inactive: -3.25% |
| Cc1ccc(C(=O)OC2CN3CCC2CC3)cc1 (stereo unspecified) | inactive: 0.648% |
| CCCC1OP(=O)(Nc2ccccc2)OCC1CC (stereo unspecified) | inactive: 3.26% |
| O=C(/C=C/c1ccccc1)OC1CN2CCC1CC2 (stereo unspecified) | inactive: 2.51% |
| CCOC(=O)C(CC)C1=NC(C)(C)Cc2ccccc21.O=[N+]([O-])c1cc([N+](=O)[O-])c(O)c([N+](=O)[O-])c1 (stereo unspecified) | inactive: -2.46% |
| CN(C)C1(CNC(=O)c2ccc(S(C)(=O)=O)cc2)CCCCC1 | inactive: 0.845% |
| O=[N+]([O-])c1cc([N+](=O)[O-])c(Nc2nnnn2CCO)c([N+](=O)[O-])c1 | inactive: 1.06% |
| CN1CCCCC1COC(=O)C1(O)c2ccccc2CCc2ccccc21 (stereo unspecified) | inactive: 2.23% |
| COc1ccc(-c2ccccn2)cc1.O=[N+]([O-])c1cc([N+](=O)[O-])c(O)c([N+](=O)[O-])c1 | inactive: -7.09% |
| O=[As](O)(c1cccs1)c1cccs1 | inactive: -0.927% |
| NS(=O)(=O)c1cccc(NC(=O)COC(=O)C(O)(c2ccccc2)c2ccccc2)c1 | inactive: 2.28% |
| CCCOc1ccc(NP(C)(=O)Oc2ccc(Cl)cc2)cc1 (stereo unspecified) | inactive: 1.98% |
| Nc1cccc([As](=O)(O)c2ccccc2)c1 | inactive: -1.54% |
